The values that follow come from patent publication US20250367134A1, “PERIPHERALIZATION OF CENTRALLY-ACTING CANNABINOID-1 RECEPTOR ANTAGONISTS BY NANOPARTICLES FOR THE TREATMENT METABOLIC RELATED CONDITIONS” (Yissum Research Development Company of the Hebrew …, priority 2022, published 2025).

By UniProt entry, the sequences of proteins in these tests, tags left out.
UniProt P47746, whole entry: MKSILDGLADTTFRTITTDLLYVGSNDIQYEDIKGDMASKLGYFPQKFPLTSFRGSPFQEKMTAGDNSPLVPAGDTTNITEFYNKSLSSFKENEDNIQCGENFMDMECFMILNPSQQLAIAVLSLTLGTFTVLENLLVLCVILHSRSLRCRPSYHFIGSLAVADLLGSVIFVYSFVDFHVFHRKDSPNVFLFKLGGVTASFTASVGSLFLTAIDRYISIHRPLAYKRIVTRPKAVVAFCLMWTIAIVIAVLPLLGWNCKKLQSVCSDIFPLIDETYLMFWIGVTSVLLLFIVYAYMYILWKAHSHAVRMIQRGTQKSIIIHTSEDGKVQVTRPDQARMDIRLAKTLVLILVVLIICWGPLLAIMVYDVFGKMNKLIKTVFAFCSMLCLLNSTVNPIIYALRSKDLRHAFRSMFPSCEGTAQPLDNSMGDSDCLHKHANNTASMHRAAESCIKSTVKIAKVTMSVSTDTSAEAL

SMILES strings stand for the structures. Counter-ions that a name gives are not always drawn.

One test deals with T1, brain's CB1R (Mus musculus, UniProt P47746).
T1 construct: from tissue; host or cells: brain of living C57Bl/6JHsd mice (in vivo)
Briefly: Catalepsy test (bar test, WIN-55,212-induced). It counts as in vivo, mice.

For another test, the target named is T2, brain's CB1Rs (Mus musculus, UniProt P47746).
T2 construct: from tissue; host or cells: brain of living C57Bl/6JHsd mice (in vivo)
In words: Acute food and water intake. It counts as in vivo, mice.

Consider `Cc1c(C(=O)NN2CCCCC2)nn(-c2ccc(Cl)cc2Cl)c1-c1ccc(Cl)cc1` [free rimonabant, N-(piperidin-1-yl)-5-(4-chlorophenyl)-1-(2,4-dichlorophenyl)-4-methyl-1H-pyrazole-3-carboxamide hydrochloride], for which the “inhibition of WIN-55,212 (3 mg/kg, ip)-induced catalepsy” value against brain's CB1R (1 mg/kg ip) and at brain's CB1R (10 mg/kg ip) was “inhibited” in each case. Further, the “acute food and water intakes” value on brain's CB1Rs (1 mg/kg ip) is “but not”; on brain's CB1Rs (10 mg/kg ip) it was “inhibited acute food and water intakes”.
